Experimental data from patent US6376200B1, “Kainate-binding, human CNS receptors of the EAA4 family” (priority 1992, dated 2002).

The chains behind the UniProt entries cited, without tags or fusion partners. Residues count along the entry.
UniProt Q13002, 32-908: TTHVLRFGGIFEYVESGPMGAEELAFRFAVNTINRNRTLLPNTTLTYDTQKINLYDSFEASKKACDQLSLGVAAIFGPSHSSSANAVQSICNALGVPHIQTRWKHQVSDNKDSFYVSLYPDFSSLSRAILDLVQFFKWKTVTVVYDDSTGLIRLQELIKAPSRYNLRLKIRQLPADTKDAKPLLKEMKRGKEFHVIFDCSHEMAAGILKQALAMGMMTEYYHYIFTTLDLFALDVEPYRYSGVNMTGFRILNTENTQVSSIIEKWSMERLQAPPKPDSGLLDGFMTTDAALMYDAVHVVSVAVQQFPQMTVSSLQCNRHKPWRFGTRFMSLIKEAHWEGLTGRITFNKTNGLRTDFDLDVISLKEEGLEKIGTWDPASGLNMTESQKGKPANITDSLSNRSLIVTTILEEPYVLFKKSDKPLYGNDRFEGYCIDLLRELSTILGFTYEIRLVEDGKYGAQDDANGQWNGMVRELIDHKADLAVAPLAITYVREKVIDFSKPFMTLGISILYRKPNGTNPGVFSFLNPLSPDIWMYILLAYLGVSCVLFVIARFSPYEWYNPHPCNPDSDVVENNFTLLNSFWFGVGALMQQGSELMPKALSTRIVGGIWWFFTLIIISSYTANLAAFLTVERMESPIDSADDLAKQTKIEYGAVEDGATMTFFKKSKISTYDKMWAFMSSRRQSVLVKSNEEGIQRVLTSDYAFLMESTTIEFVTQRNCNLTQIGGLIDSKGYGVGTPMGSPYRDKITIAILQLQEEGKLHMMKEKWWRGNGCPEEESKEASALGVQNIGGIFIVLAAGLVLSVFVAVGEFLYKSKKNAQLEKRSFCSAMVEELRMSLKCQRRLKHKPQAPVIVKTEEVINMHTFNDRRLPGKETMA

Target: human EAA4a receptor (Homo sapiens, UniProt Q13002)
Type: cell-based
Set-up: transported to the cell surface in mature form, lacking the signal peptide and consisting of 877 amino acids; expressed in transfected cells; host or cells: Xenopus oocytes (stage V or VI), nuclear injection of pcDNAI/humEAA4a DNA
Description: Xenopus oocytes (stage V or VI) were harvested and the nucleus of the oocytes was injected with 5 ng of pcDNAI/humEAA4a DNA.

current/voltage (I/V) relationship: strongly rectified
Structure (SMILES): N[C@@H](CCC(=O)O)C(=O)O [L-glutamate]
desensitization in the continuing presence of agonist: rapidly desensitized
